High-throughput results as filed in PubChem BioAssay.
UUG fidelity: alters start codon recognition fidelity in yeast; S. cerevisiae UUG-firefly luciferase reporter, luminescence/redox ratio; activity score, % at 18.7 µM; hit rate 0.13% among 350,000;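 active = replicate mean at a twofold rise or more, about +100% in these data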;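 also: firefly luciferase made from a UUG start codon reports start codon fidelity; reporter light over untreated wells divided by growth signal over untreated wells; some hits fall short of that in this replicate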
ERAP1 inh: human ERAP1 aminopeptidase inhibitors, primary screen, biochemical, single point, plate reader; Endoplasmic reticulum aminopeptidase 1 (Homo sapiens), Q9NZ08; recombinant ERAP1, Leu-AMC fluorescence, 60 min; inhibition, % at 10.7 µM; 340,000 compounds, 0.15% hits;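 active means mean replicate inhibition of at least 30%, or all replicates individually reaching that 30% level; inactive means mean below 30% and not every replicate reaching it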
E-selectin induc: E-selectin induction in HUVECs, primary screen, imaging, HUVEC, immunofluorescence imaging, single point; 260,000 compounds, 0.37% hits; AID 686992, 2013; activation, % at 7.58 µM; normalized: neutral wells 0, TNF-alpha wells 100; P16581;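 active means mean E-selectin-positive cell signal at least 10% of the positive control, reached in at least 60% of replicates, without over 20% cell loss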
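Read-out basis: % PE-positive cells; Test system: HUVEC primary endothelial cells; Technique: immunofluorescence imaging; Dosing: single-point compound dose.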
S100A4 inh HTS: inhibitors of S100A4-myosin IIA peptide binding, primary screen, biochemical, fluorescence polarization, TAMRA-MyoIIA peptide | AID 652163, 2013 | 360,000 compounds, 0.14% hits | Protein S100-A4 (Homo sapiens), P26447 | inhibition, % at 10.7 µM;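 active means mean inhibition of at least 70% across replicates, with every replicate also reaching that level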
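Assay system: human S100A4 monomer with TAMRA-labelled myosin IIA peptide / Buffer or medium: Calcium-containing HEPES buffer, pH 7.2 / Reagent: TAMRA-labelled myosin IIA heavy-chain peptide probe, 5 nM / Compound: one dose per compound / Timing: polarization read 5 min after assay mix addition, stable 5–60 min / Benchmarks: neutral control DMSO, positive control TFP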
ARNT-TACC3 inh: disruptors of ARNT/TACC3 protein interaction, primary screen, biochemical, AlphaScreen, single concentration | Transforming acidic coiled-coil-containing protein 3 (Homo sapiens), Q9Y6A5 | AlphaScreen His-ARNT PAS-B/GST-TACC3 binding, luminescence; TACC3 fragment carries E629A point mutation | inhibition, % at 9.99 µM | 390,000 compounds, 0.66% hits;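 active means mean inhibition of replicates at least 50% and at least half of replicates each reaching 50%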
MLL AF4-AF9 inh: inhibitors of AF4 peptide binding to AF9, primary screen, biochemical, AlphaScreen, biotin-AF4 peptide, FLAG-AF9, single point. Protein AF-9 (Homo sapiens), P42568. inhibition, % at 10 µM. 350,000 compounds, 0.47% hits. AID 651704, 2012;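 active means every replicate reaching a set inhibition limit, whatever the replicate mean, cut at about 25% in these data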
Hits are given with their value; - = inactive; . = not tested or not shown. Shown are actives, neighbours in structure and some others; about 1.3% of the full set was active somewhere.

Amino acid sequences for entries named in this document (tags omitted).
Protein AF-9 (Homo sapiens), P42568, UniProt P42568, whole entry, looked up: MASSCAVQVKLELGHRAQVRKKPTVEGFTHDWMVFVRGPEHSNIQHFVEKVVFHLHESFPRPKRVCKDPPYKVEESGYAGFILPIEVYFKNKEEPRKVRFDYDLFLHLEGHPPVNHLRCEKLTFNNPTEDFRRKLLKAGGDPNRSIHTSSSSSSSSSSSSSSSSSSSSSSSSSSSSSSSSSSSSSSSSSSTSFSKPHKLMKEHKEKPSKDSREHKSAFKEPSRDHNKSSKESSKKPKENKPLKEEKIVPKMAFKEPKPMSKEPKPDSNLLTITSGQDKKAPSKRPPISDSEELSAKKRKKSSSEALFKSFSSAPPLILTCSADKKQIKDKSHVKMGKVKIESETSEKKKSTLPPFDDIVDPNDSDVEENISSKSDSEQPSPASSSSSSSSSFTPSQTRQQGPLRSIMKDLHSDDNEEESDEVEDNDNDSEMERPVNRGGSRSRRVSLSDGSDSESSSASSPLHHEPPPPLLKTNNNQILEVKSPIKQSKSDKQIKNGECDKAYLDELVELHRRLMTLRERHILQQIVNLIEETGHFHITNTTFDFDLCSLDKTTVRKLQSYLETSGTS

SMILES	UUG fidelity	ERAP1 inh	E-selectin induc	S100A4 inh HTS	ARNT-TACC3 inh	MLL AF4-AF9 inh
COc1ccc(NC(=O)Nc2cccc3c2O[C@@H](CN(C)C(=O)Nc2ccccc2)[C@H](C)CN([C@H](C)CO)C3=O)cc1	-	-	-	-	-	-
Cc1ccc(-c2cnc3c(c2)C(=O)N([C@H](C)CO)C[C@@H](C)[C@@H](CN(C)CC2CCCC2)O3)cc1	-	-	-	-	-	-
Cc1ccc(CN2CCN(Cc3ccc4c(c3)OCCO4)CC2CCO)cc1 (stereo not drawn)	.	-	-	-	-	-
OCCC1CN(Cc2ccc3c(c2)CCO3)CCN1Cc1ccc(F)cc1 (stereo not drawn)	.	-	-	74	-	-
O=C(Nc1ccc2c(c1)[C@H]1C[C@H](CC(=O)N3CCCCC3)O[C@@H](CO)[C@H]1O2)C1CCC1	-	-	-	-	-	-
COC(=O)c1ccc(N/N=C/c2cc([N+](=O)[O-])cc(OC)c2O)cc1	-	-	.	-	-	-
COc1cc([N+](=O)[O-])cc(/C=N/NC(=O)Cn2nc(C)cc2C)c1O	.	.	-	-	63	-
COc1cc([N+](=O)[O-])cc(/C=N/NC(=O)Cn2nccc2C)c1O	-	-	.	-	71	-
COc1ccc(/C=N/NC(=O)Cn2nc([N+](=O)[O-])cc2C)c(OC)c1OC	.	.	-	-	-	-
C[C@H]1CCCCO[C@@H](CN(C)C(=O)C2CCCCC2)[C@@H](C)CN([C@@H](C)CO)C(=O)c2cc(NC(=O)C3CCCCC3)ccc2O1	-	-	-	-	-	-
O=C(NC12CC3CC(CC(C3)C1)C2)c1ccc(-c2ccccc2Cl)o1	-	.	.	.	active	.
O=C(C[C@H]1C[C@@H]2c3cc(NC(=O)CC4CC4)ccc3O[C@@H]2[C@@H](CO)O1)NCc1cccc(F)c1	-	-	-	-	active	-
O=C(C[C@@H]1C[C@@H]2c3cc(NC(=O)Cc4ccncc4)ccc3O[C@@H]2[C@H](CO)O1)NCc1ccccn1	.	-	-	-	-	-
O=C(C[C@H]1C[C@H]2c3cc(NC(=O)Cc4ccncc4)ccc3O[C@H]2[C@H](CO)O1)NCc1ccccn1	.	.	-	96	.	-
O=C(Cc1ccncc1)Nc1ccc2c(c1)[C@H]1C[C@H](CC(=O)N3CCc4ccccc4C3)O[C@H](CO)[C@H]1O2	.	-	-	-	-	25
C[C@H](CO)N1C[C@H](C)[C@@H](CN(C)CC2CCCCC2)OCCCC[C@H](C)Oc2ccc(NC(=O)C3CCCCC3)cc2C1=O	-	-	-	-	-	-
CC[n+]1c(C)sc2c(C)cc(C)cc21	-	-	.	-	.	.
CC[n+]1c(C)sc2cc(OC)ccc21	.	30	.	-	-	-
COc1ccc(OC)c2[nH]c(=O)c(CCNS(=O)(=O)c3ccc(Cl)cc3)cc12	-	.	.	.	48	.
CNC(=O)C[C@@H]1CC[C@H]2[C@H](COc3ccc(NC(=O)c4cc(C)on4)cc3C(=O)N2C)O1	-	.	-	.	-	.
CCOc1ccc(S(=O)(=O)NC(Cc2cnc[nH]2)C(=O)O)cc1 (stereo not drawn)	.	-	-	-	-	-
CCOc1ccc(C(=O)CCNC(Cc2cnc[nH]2)C(=O)O)cc1 (stereo not drawn)	-	-	.	-	61	-
O=C(C[C@@H]1CC[C@H]2[C@@H](COC[C@@H](O)CN2CC2CCCC2)O1)NCc1ccc(Cl)cc1	.	-	-	-	.	-
CCn1cnc2c1c(=O)n(CC(=O)NCC(F)(F)F)c(=O)n2Cc1ccccc1	-	58	-	-	-	-
CCn1cnc2c1c(=O)n(CC(=O)NCc1ccccc1)c(=O)n2Cc1ccccc1	-	-	-	-	-	-
SMILES	UUG fidelity	ERAP1 inh	E-selectin induc	S100A4 inh HTS	ARNT-TACC3 inh	MLL AF4-AF9 inh
CCc1ccc(NC(=O)c2cc(C)nn2-c2ccccc2)cc1	-	-	-	-	-	-
CC(=O)Nc1ccc(NC(=O)c2cc(C)nn2-c2ccccc2)cc1	-	.	.	.	-	.
CC(=O)c1cc2c(cc1NC(=O)c1cc(C)nn1-c1ccccc1)OCO2	-	-	-	-	-	34
CCOC(=O)c1cccc(NC(=O)c2cc(C)nn2-c2ccccc2)c1	-	-	41	-	-	-
CN1CCN(C(=O)C[C@H]2CC[C@@H]3[C@@H](COc4ccc(NC(=O)c5ccc(F)c(F)c5)cc4C(=O)N3C)O2)CC1	-	-	-	-	-	-
CC12CCC(C(=O)N(CSC(=S)N/N=C\c3ccccc3O)C1=O)C2(C)C (stereo not drawn)	-	.	.	.	66	.
COc1ccc(/C=N\NC(=S)SCN2C(=O)C3CCC(C)(C2=O)C3(C)C)cc1 (stereo not drawn)	-	.	.	.	-	.
CN(C)CC(=O)N[C@@H]1CC[C@H](CCn2cc(C3CC3)nn2)O[C@@H]1CO	-	-	-	-	-	-
C[C@H]1CN([C@@H](C)CO)C(=O)c2cc(Br)cnc2O[C@@H]1CN(C)Cc1ccccn1	-	-	-	-	-	-
COC(=O)Cc1[nH]nc2c1C(c1ccc(O)c(OC)c1)C(C#N)=C(N)O2 (stereo not drawn)	-	-	-	-	-	30
COC(=O)Cc1[nH]nc2c1C(c1cc(OC)c(OC)c(OC)c1)C(C#N)=C(N)O2 (stereo not drawn)	-	-	-	-	-	-
O=C1CC(N2CCSCC2)C(=O)N1c1cccc(Br)c1 (stereo not drawn)	-	-	43	-	-	-
O=C1CC(N2CCN(c3ccccc3)CC2)C(=O)N1c1cccc(Br)c1 (stereo not drawn)	-	-	.	-	-	-
O=C(O)CCC(=O)Nc1ccc(-c2csc(Nc3cccc4ccccc34)n2)cc1	-	-	.	-	8.8	-
O=c1ccc(-c2ccc(S(=O)(=O)NCC3CCN(Cc4ccccc4F)CC3)s2)n[nH]1	-	-	.	-	50	-
COC(=O)c1cc(S(=O)(=O)NCC2CCN(Cc3ccccc3F)CC2)c[nH]1	-	-	.	-	-	-
C[C@@H]1CCCCO[C@H](CN(C)C(=O)NC2CCCCC2)[C@@H](C)CN([C@H](C)CO)C(=O)c2cc(NC(=O)Nc3cccc4ccccc34)ccc2O1	-	-	-	-	-	-
CCc1nc2ccc(C(=O)NCCNC(C)=O)cn2c1N(CC)CCOC	-	-	-	-	.	46
COc1ccc(S(=O)(=O)N2CC[C@H]3[C@H](CO)Nc4ccc(Br)cc4[C@H]32)cc1	-	.	-	.	-	.
O=C(Nc1cccc(S(=O)(=O)N2CCCC2)c1)c1cccc(S(=O)(=O)N2CCOCC2)c1	-	-	.	-	-	26
